Data published in patent US20240052079A1 (OREGON HEALTH & SCIENCE UNIVERSITY, priority 2021, published 2024).

Tests used:
[1] = Hydrolytic degradation kinetics of neat monomers by 1H NMR; format: physicochemical; conditions: for Percent remaining monomer: 50 mM monomer, aqueous pH=1, 37° C.
Protocol: Neat monomers were subject to the hydrolytic degradation kinetics assay. An aqueous solution (pH=1) was prepared using HPLC grade water and adjusted using 1.0 M HCI. A 50 mM solution of each monomer (n=3) was prepared using 1.0 mL of the acidic aqueous solution. A capillary tube was filled with a 50 mM solution of tetramethylammonium bromide dissolved in D2O and flame sealed. The capillary tube was placed at the bottom on the NMR tube to allow the “locking on” of the instrument and to act as an internal standard. ^1H NMR spectra were obtained using a water suppression by excitation sculpting experiment. After the initial reading, the NMR tubes were flame sealed and incubated at 37° C. During the first week and after 12, 19, and 30 days, the samples were removed from incubation to obtain water suppressed ^1H NMR spectra. To determine the amount of monomer degradation, spectra were first aligned using the ITSD singlet peak and then an integration region unique to a monomer vinyl proton and an integration region unique to a degradation product (methacrylic or acrylic acid) vinyl proton were used to calculate the ratio of monomer to degradation product. An integration region where a vinyl peak is found in both TMAAEA and acrylic acid was used to normalize the integration values. Additional integration regions on either side of the vinyl region were used to determine the average amount of noise in each spectra. Degradation product values with a signal to noise ratio of less than 10 were considered to show no measurable amount of degradation.

[2] = values not given; source of logP not stated

Row | Compound | Percent remaining monomer ([1]; day 5) | Percent remaining monomer ([1]; day 7) | logP, ranking among tested monomers [2] | Percent remaining monomer ([1]; day 0) | Percent remaining monomer ([1]; day 1) | Percent remaining monomer ([1]; day 2) | Percent remaining monomer ([1]; day 3) | Percent remaining monomer ([1]; day 4) | Percent remaining monomer ([1]; day 6) | Percent remaining monomer ([1]; day 12) | Percent remaining monomer ([1]; day 19) | Percent remaining monomer ([1]; day 30) | final degradation percentage ([1]; over one month, acidic aqueous conditions (pH=1))
1 | C=CC(=O)NN1CCCN(NC(=O)C=C)CC1 [BAADA, N,N′-bis(acrylamido) 1,4-diazepane] | 99.9 ± 0.1% | 99.9 ± 0.1% |  |  |  |  |  |  |  |  |  |  | 
2 | N,N-Diethyl-1,3-bis(acrylamido)propane [DEBAAP, reference compound] | 100.0 ± 0.0% | 100.0 ± 0.0% | the highest among all groups | 100.0 ± 0.0% | 100.0 ± 0.0% | 100.0 ± 0.0% | 100.0 ± 0.0% | 100.0 ± 0.0% | 99.9 ± 0.2% | 100.0 ± 0.0% | 100.0 ± 0.0% | 100.0 ± 0.0% | 0%
